Columns and labels:
[1] = tested on: TLR8-mediated TNF-α and IL-8 mRNA; assay: RT-PCR of TNF-α and IL-8 mRNA in R848 treated HEK-Blue TLR8 cells; conditions: 1 μM
[2] = tested on: TNF-α and IL-1β release from synovial cells of OA patients; assay: Spontaneous cytokine release from synovial cells of osteoarthritis patients; conditions: 24 h
[3] = tested on: TNF-α production in PBMCs from RA patients; assay: TNF-α level in PBMCs harvested from RA patients; conditions: PBMCs from RA patients and one AOSD patient; dose-dependent
[4] = tested on: synovial cells isolated from osteoarthritis (OA) patients; assay: Cytotoxicity on synovial cells from OA patients; conditions: up to 100 μM
human TLR8 = human TLR8 (Homo sapiens, UniProt Q9NR97); assay: SEAP reporter assay in HEK-Blue TLR8 cells, R848-induced TLR8 signaling; assay type: cell-based; conditions: for IC50: R848 as agonist
TLR7 = TLR7 (Homo sapiens, UniProt Q9NYK1); assay: SEAP assay in HEK-Blue TLR7 cells activated by R848; assay type: cell-based; conditions: concentrations up to 75 μM
[5] = tested on: TLR8-mediated TNF-α production in PBMC cells; assay: R848-induced TNF-α secretion in PBMCs; conditions: 1 μg/mL R848; dose-dependent; 4a at 50 μM
[6] = tested on: TLR1/2, TLR2/6, TLR3, TLR4, TLR5, TLR7, TLR9; assay: TLR selectivity assay (SEAP) in HEK-Blue cells overexpressing individual TLRs; assay type: cell-based, human; conditions: 1 μM; HEK-Blue cells overexpressing each individual TLR
HEK-Blue TLR8 cells = assay: WST-1 cell proliferation (cytotoxicity) assay; conditions: 24 h
[7] = tested on: TLR8-mediated TNF-α production in THP-1 cells; assay: R848-induced TNF-α production in differentiated THP-1 monocytes; conditions: read-out: IC50 of R848-induced TNF-α production

Amino acid sequences for entries named in this document (tags omitted). Residues count along the entry.
UniProt Q9NR97, 27-1041 limits assumed: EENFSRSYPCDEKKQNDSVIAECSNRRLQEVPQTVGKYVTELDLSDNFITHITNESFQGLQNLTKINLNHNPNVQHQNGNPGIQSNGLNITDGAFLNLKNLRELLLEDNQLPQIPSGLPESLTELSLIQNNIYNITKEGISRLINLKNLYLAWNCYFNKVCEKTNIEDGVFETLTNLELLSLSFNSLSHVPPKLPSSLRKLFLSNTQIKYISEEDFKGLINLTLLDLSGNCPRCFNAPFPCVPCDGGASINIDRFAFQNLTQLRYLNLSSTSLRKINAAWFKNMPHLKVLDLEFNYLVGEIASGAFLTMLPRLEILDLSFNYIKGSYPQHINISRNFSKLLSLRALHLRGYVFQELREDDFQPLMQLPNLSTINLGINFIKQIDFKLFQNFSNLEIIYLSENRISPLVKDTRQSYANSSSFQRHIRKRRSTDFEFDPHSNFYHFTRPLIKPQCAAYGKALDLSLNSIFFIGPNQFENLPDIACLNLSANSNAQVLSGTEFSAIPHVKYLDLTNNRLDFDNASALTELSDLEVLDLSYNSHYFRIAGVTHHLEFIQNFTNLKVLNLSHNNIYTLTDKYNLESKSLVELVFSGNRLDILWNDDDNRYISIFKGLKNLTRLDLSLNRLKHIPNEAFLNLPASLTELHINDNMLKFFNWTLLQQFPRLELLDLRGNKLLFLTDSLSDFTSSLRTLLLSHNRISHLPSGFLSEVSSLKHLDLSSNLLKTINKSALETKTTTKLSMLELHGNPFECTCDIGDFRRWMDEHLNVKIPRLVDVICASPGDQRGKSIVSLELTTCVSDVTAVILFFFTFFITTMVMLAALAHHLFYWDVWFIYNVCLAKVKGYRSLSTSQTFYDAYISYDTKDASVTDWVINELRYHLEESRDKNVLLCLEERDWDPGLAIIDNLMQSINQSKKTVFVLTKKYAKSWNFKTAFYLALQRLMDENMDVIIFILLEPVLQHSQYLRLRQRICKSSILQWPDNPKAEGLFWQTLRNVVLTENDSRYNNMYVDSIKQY
UniProt Q9NYK1, 27-1049 limits assumed: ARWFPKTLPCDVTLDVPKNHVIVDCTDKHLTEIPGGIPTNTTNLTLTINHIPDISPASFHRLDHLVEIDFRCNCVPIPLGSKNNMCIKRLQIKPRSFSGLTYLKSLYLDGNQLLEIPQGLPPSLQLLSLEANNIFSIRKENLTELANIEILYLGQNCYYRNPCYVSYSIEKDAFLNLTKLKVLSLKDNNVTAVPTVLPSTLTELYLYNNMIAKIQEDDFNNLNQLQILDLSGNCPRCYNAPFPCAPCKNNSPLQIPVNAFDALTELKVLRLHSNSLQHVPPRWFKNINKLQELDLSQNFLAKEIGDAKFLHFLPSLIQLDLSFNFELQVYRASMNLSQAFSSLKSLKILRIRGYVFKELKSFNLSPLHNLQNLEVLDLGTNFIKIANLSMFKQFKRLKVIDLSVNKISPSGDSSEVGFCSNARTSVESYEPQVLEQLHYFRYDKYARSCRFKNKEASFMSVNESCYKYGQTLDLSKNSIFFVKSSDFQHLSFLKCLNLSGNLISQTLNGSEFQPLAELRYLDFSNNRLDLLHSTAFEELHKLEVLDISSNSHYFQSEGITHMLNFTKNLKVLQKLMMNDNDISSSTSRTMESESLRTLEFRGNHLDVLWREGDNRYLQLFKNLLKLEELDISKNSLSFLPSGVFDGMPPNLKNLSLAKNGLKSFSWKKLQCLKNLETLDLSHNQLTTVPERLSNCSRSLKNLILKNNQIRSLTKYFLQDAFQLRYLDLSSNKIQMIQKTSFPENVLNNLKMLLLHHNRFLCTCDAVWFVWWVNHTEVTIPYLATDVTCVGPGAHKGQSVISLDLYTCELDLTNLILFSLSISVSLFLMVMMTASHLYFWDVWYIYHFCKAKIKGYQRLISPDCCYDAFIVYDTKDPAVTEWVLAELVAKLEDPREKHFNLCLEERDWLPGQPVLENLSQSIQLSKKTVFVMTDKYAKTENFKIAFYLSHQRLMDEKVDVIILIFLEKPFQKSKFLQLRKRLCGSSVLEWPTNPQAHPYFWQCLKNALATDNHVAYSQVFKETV

SMILES	elevation of TNF-α and IL-8 mRNA levels induced by R848 [1]	spontaneous release of TNF-α and IL-1β from synovial membrane cultures [2]	TNF-α level in patient PBMCs [3]	cytotoxicity in synovial cells [4]	fold stronger inhibitory activity than hit compound 6a (human TLR8) [fold]	TLR7 signaling (TLR7-mediated NF-κB activation) (TLR7)	R848-induced TNF-α secretion of PBMCs [5]	inhibition of any TLR other than TLR8 [6]	cytotoxicity (HEK-Blue TLR8 cells)	IC50 [7] [nM]	IC50 (human TLR8) [nM]
Cc1cccc(-c2ccnc3c(C(N)=O)cnn23)c1	completely abolished	significant inhibitory effects	significantly suppressed	little cytotoxicity	2	not affected	reversed	did not show significant inhibition	negligible cytotoxicity	90	–
COc1ccc2c(-c3cnc(OCc4ccccc4)c(C)c3)ccnc2c1	–	–	–	–	–	–	–	–	–	–	0.8
COc1ccc2c(-c3ccc(OCCCCO)c(C)c3)ccnc2c1	–	–	–	–	–	–	–	–	–	–	0.1
